Only a part is listed here, and it is no random draw. Active and inactive are the calls of the source.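 How the source made its calls: active means inhibition above a per-campaign cutoff, the mean inhibition of all tested compounds plus 3 SD (cut at about 27% in these data); inactive means the rest.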
Test: parental Ba/F3 cell viability inhibition, counter-screen for JAK2V617F inhibitor project, murine pro-B, CellTiter-Glo luminescence (AID 1486);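 further: 0% = DMSO wells and 100% = JAK Inhibitor I control wells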
Conditions: CellTiter-Glo ATP luminescence, at 5.6 µM, hits give high values

Compound	inhibition
CC1(CBr)Cn2c(nc3ccccc3c2=O)S1 (centres undefined)	inactive: 1.94%
CN(C(=O)Cc1ccc(Cl)c(Cl)c1)[C@@H]1CCCC[C@H]1N1CCCC1	inactive: -1.07%
CC(C)/C=N\N=C(\N)N[N+](=O)[O-]	inactive: 5.72%
Clc1n[nH]nc1-c1nn[nH][15n]1	inactive: 2.52%
CC(C)(C)C(=O)NC(Sc1ncccn1)C(Cl)(Cl)Cl (centres undefined)	inactive: 2.23%
CCOP(=O)(Nc1ccc(C)cn1)OCC	inactive: -2.12%
O=P1(Nc2ccccn2)COc2ccccc2OC1	inactive: 6.58%
O=P1(Nc2ccc(Br)cn2)COc2ccccc2OC1	inactive: 0.55%
O=[As](O)(c1cccs1)c1cccs1	inactive: -8.21%
Cc1ccc(OCC(=O)OC2CN3CCC2CC3)cc1 (centres undefined)	inactive: 0.17%
Nc1cccc([As](=O)(O)c2ccccc2)c1	inactive: -1.62%
O=P1(Nc2ncccn2)COc2ccccc2OC1	inactive: 11.1%
O=C(/C=C/c1ccccc1)OC1CN2CCC1CC2 (centres undefined)	inactive: -1.04%
CN(C)C1(CNC(=O)c2ccc(S(C)(=O)=O)cc2)CCCCC1	inactive: -0.73%
Cc1nn(-c2ccccc2)c2c1P(=O)(N1CCOCC1)N(C)C(c1ccccc1)=N2 (centres undefined)	inactive: 6.66%
CC1CCC(C(C)C)C(OP(=O)(Nc2ccccn2)c2ccccc2)C1 (centres undefined)	inactive: 6.12%
O=[N+]([O-])c1ccc2c(c1)nnn2O	inactive: -0.53%
CCOP1(=S)c2c(C)nn(CCC#N)c2N=C(c2ccc(F)cc2)N1C (centres undefined)	inactive: 0.86%
O=C(O)COc1ccc([As](=O)(O)O)cc1[N+](=O)[O-]	inactive: -2.44%
Nc1ccccc1[As](=O)(O)c1ccccc1	inactive: -0.45%

Compound	inhibition
CS(=O)(=O)c1cc([N+](=O)[O-])c2no[n+]([O-])c2c1	inactive: 2.7%
CCOP1(=S)c2c(C)nn(CCC#N)c2N=C(c2ccccc2F)N1C (centres undefined)	inactive: 2.97%
O=P(Nc1nccs1)(c1ccccc1)c1nc2ccccc2s1 (centres undefined)	inactive: 5%
O=P(Nc1nccs1)(Oc1ccccc1)Oc1ccccc1	inactive: 8.12%
COc1cc(C2NCCC3(OCCO3)C2(C)C)cc(OC)c1OC (centres undefined)	inactive: 5.88%
CCOP(=O)(Nc1cccc2ccccc12)OCC	inactive: 1.27%
CCCOP(=S)(Nc1nc(N)cc(=O)[nH]1)OCCC	inactive: -1.56%
Nc1cccc2c([As](=O)(O)O)cccc12	inactive: -2.76%
Cc1ccc(NCCc2c([N+](=O)[O-])cc([N+](=O)[O-])cc2[N+](=O)[O-])cc1	inactive: 3.69%
O=[As](O)(c1cccc(O)c1)c1cccc(O)c1	inactive: -1.76%
Cc1cccc(OCC(=O)OC2CN3CCC2CC3)c1 (centres undefined)	inactive: 1.78%
COc1cc(C(=O)NCC2(N3CCOCC3)CCCCC2)cc(Cl)c1OC(C)C	inactive: 2.28%
O=[As](O)(O)c1cccnc1	inactive: 0.18%
O=C(OC1CN2CCC1CC2)c1ccc(Cl)cc1 (centres undefined)	inactive: 16.9%
COc1ccc(N/C(=N/P(=O)(N2CCOCC2)N2CCOCC2)N2CCOCC2)cc1	inactive: 4.37%
COc1ccc2nc(NP(=O)(c3ccccc3)c3ccccc3)sc2c1	inactive: 3.63%
COc1cc(I)ccc1[As](=O)(O)O	inactive: 0.14%
O=C(OC1CN2CCC1CC2)C12CC3CC(CC(C3)C1)C2 (centres undefined)	inactive: 0.01%
Cc1cc(=O)[nH]c(N[N+](=O)[O-])n1	inactive: 5.29%
Cc1c2c(nc3ccccc13)SC(C(Cl)Cl)C2 (centres undefined)	inactive: 4.11%

Compound	inhibition
CCN(CC)C(=S)SC(NC=O)C(Cl)(Cl)Cl (centres undefined)	inactive: 2.79%
CC(C)NC(=O)NP(=O)(Oc1ccccc1)Oc1ccccc1	inactive: 8.28%
O=[N+]([O-])c1cc([N+](=O)[O-])c(-c2ccn[nH]2)s1	inactive: 5.02%
CC(C)c1ccc(OP(=O)(Nc2ccccn2)Oc2ccccc2F)cc1 (centres undefined)	inactive: -2.1%
ClCCSc1nnc(-c2cccnc2)o1	inactive: 5.52%
Cc1ccc2nc3c(c(C)c2c1)CC(C(Cl)Cl)S3 (centres undefined)	inactive: 0%
Cc1ccc(OP(=O)(Nc2ccc([N+](=O)[O-])cn2)Oc2ccc(C)cc2)cc1	inactive: 3.65%
O=[As](O)(c1ccc(O)cc1)c1ccccc1O	inactive: -3.52%
C[As](=O)(O)c1cccc(C(=O)O)c1	inactive: 7.83%
O=[N+]([O-])c1ccc(Nc2ccc(Oc3ccc([N+](=O)[O-])cc3[N+](=O)[O-])cc2)c([N+](=O)[O-])c1	inactive: -1.33%
Cc1cc(SC(NC=O)C(Cl)(Cl)Cl)ncn1 (centres undefined)	inactive: 8.65%
O=P(Nc1ccccn1)(c1cccc2ccccc12)c1cccc2ccccc12	inactive: 8.22%
CCOC(=O)Nc1cccc([As](=O)(O)O)c1	inactive: -3.56%
Cc1cc(SC(NC(=O)c2ccccc2)C(Cl)(Cl)Cl)nc(C(C)C)n1 (centres undefined)	inactive: 5.37%
CCOC(=O)Nc1ccc([As](=O)(O)O)c(O)c1	inactive: -4.74%
CCC(C)N(CC(C)C)C(=S)SC(NC(C)=O)C(Cl)(Cl)Cl (centres undefined)	inactive: 3.5%
CCOC(=O)c1ccc(NC(=O)C(C)(CCl)SC)cc1 (centres undefined)	inactive: -2.1%
O=C(COc1ccccc1)OC1CN2CCC1CC2 (centres undefined)	inactive: -1.84%
COP1(=S)c2c(C)nn(CCC#N)c2N=C(c2ccc(F)cc2)N1C (centres undefined)	inactive: 5.16%

Reference: PubChem BioAssay AID1486 (The Scripps Research Institute Molecular Screening Center, 2009)
